# Results reported in patent US20090312437A1, “Anthraquinones and Analogs from Rhuem palmatum for Treatment of Estrogen Receptor Beta-Mediated Conditions” (Bionovo, Inc., A Delaware Corporation, priority 2008, published 2009).
# The chains behind the UniProt entries cited, without tags or fusion partners.
# UniProt Q92731, whole entry: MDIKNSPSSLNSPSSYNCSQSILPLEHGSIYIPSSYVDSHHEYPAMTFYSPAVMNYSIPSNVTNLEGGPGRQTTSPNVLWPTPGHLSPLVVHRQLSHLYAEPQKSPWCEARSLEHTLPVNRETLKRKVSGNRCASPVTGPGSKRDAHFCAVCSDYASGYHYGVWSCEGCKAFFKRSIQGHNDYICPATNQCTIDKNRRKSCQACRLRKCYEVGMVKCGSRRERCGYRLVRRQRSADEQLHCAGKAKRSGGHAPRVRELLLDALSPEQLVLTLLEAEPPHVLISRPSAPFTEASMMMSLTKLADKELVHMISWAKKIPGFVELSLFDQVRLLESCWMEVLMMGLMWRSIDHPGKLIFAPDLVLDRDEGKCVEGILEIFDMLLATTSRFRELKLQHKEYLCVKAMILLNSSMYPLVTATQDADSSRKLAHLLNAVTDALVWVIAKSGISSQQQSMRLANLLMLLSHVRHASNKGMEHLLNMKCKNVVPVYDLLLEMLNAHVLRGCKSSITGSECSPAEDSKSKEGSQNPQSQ
# UniProt P03372, whole entry: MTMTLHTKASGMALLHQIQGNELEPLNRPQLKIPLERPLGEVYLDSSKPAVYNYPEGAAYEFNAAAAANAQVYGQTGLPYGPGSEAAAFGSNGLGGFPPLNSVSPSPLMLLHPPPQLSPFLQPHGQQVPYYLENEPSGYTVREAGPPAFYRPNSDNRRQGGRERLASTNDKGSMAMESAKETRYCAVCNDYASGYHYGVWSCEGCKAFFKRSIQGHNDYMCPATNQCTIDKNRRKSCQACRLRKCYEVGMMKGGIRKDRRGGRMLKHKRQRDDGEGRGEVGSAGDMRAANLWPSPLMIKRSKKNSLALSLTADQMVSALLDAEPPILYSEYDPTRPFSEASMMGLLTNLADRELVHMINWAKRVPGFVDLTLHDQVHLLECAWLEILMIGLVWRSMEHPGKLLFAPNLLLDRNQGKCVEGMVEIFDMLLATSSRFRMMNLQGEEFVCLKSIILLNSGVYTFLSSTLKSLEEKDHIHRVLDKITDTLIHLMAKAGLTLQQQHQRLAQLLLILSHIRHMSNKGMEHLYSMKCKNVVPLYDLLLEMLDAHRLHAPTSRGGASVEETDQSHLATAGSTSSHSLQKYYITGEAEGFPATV
# Experiments:
# ERβ = ERβ (Homo sapiens, UniProt Q92731); assay: ERE-tk-Luc luciferase transient transfection assay in U2OS cells with ERβ
# ERα [1] = target: T1, ERα (Homo sapiens, UniProt P03372); assay: ERE-tk-Luc luciferase transient transfection assay in U2OS cells with ERα; format: cell-based; set-up: expressed in transfected cells; host or cells: U2OS (human osteosarcoma); conditions: ERα expression vector
# ERα [2] = target: T1, ERα; conditions: TNF-RE tkLuc, U2OS cells
substance,measurement,setting,value
emodin [compound 1],"stimulation of expression of ERE-tk-luc (fold), compound alone",ERβ; compound + control,about 4 ×
same,"stimulation of expression of ERE-tk-luc (fold), compound plus estradiol",ERβ; compound + estradiol,~6 ×
same,activation of ERE-tk-Luc in the presence of ERα,ERα [1],not significantly
same,activation of ERE-tk-Luc in the presence of ERα,ERα [1]; listed as emodin (1),not ERα
same,repression of TNF-α activation of TNF-RE in the presence of ERα,ERα [2],not ERα
